Values quoted from earlier work as cited in PMC6723713, “Purification, Characterization and Evaluation of Inhibitory Mechanism of ACE Inhibitory Peptides from Pearl Oyster (Pinctada fucata martensii) Meat Protein Hydrolysate” (Marine Drugs, 2019).

By UniProt entry, the sequences of proteins in these tests, tags left out. Residues count along the entry.
UniProt P12822, 34-1310 limits assumed: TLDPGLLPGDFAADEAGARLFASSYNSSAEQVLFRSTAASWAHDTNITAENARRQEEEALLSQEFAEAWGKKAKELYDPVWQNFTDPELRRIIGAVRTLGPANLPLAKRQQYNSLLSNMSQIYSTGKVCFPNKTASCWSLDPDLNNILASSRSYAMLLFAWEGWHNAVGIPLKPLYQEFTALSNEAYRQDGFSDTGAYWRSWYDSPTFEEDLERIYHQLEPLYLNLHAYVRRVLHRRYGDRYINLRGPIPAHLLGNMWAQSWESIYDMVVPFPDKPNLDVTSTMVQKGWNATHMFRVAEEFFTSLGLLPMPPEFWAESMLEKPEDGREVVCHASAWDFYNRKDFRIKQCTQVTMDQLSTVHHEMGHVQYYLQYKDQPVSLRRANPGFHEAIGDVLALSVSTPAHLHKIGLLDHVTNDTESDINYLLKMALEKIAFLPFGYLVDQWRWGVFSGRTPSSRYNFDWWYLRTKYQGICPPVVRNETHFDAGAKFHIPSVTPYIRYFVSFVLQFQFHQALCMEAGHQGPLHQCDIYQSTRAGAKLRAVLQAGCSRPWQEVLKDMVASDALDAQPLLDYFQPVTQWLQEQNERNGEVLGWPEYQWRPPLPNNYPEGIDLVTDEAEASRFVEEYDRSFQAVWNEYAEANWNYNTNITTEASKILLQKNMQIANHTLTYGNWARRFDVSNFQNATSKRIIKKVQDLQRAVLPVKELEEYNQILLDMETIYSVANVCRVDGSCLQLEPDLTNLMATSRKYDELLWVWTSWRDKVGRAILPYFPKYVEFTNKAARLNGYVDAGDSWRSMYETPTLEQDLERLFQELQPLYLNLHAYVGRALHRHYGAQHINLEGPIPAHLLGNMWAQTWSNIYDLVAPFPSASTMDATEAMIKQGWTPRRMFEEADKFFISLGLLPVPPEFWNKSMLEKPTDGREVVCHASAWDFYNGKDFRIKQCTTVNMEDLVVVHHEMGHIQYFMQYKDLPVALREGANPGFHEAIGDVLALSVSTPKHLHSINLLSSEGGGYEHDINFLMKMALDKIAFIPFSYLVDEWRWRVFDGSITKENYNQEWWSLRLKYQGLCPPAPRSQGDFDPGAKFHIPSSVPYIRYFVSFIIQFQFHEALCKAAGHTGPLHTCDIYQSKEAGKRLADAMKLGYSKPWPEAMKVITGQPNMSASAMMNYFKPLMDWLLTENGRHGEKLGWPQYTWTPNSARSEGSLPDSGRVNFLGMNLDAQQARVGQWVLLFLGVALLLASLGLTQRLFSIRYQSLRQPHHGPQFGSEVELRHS

Biological target: ACE (Oryctolagus cuniculus, UniProt P12822)
Details: ref [28]; cited from earlier work
Excerpt: Table 2 Summary of ACE inhibitory peptides having similar structure with purified peptides. | column: IC50 (μM) || Table 3 Inhibition pattern of ACE inhibitory peptides derived from marine products. | column: Inhibition Pattern; IC50 (μM)

**Q.** With `C[C@H](NC(=O)[C@@H](N)Cc1c[nH]c2ccccc12)C(=O)O` as the molecule, how does the IC50 read?
**A.** 277 µM
